Results taken from US9783503B2, “Crystalline forms of an estrogen receptor modulator” (Genentech, Inc., priority 2014, dated 2017).

Assay: Thermodynamic aqueous solubility
Details: for Solubility: aqueous

Question: Which “aqueous solubility relative to the other salts” value does the source give for Choline here?
Answer: higher aqueous solubility

Question: And the Solubility (crystalline salt prepared from Dioxane (5 Vols))?
Answer: 8570 µg/mL

Question: And the Solubility (crystalline salt prepared from Ethyl Acetate (10 Vols))?
Answer: 9320 µg/mL

Question: And the Solubility (crystalline salt prepared from MeCN (300 Vols))?
Answer: 9210 µg/mL
